Experimental findings from article PMC8041433 (Environmental Health Perspectives, 2021) are described below.

Sequences of proteins named here, by UniProt entry; tags and fusion partners are left off. Residues count along the entry.
UniProt P22303, 32-614: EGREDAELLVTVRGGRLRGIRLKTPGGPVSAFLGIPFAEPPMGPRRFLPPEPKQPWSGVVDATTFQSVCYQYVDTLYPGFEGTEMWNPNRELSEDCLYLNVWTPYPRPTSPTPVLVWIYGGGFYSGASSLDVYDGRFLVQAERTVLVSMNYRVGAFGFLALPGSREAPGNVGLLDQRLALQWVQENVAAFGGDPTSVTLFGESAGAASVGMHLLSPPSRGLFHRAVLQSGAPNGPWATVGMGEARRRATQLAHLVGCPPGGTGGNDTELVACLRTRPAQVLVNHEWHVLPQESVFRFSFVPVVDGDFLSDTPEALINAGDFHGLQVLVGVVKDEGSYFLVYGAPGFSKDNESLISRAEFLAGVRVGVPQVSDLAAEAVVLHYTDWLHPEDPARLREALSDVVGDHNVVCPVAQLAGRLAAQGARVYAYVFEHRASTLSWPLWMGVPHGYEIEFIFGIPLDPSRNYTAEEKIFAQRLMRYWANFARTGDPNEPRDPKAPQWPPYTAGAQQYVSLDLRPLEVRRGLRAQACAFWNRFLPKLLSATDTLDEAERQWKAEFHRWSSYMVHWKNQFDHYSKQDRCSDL

Values joined by “and” are separate entries in the source; they are usually repeats but may differ in a detail not shown here. Equal values may be shown once. Where a name gives a salt, the structure may show the parent alone. Read-outs that look alike come from different tables or passages of the source.

Assay [1] concerns the target T1, recombinant human AChE (Homo sapiens, UniProt P22303). As to the kind of experiment: biochemical.
For the next assay, the target named is AChE in SH-SY5Y cells (Homo sapiens, UniProt P22303). As to the kind of experiment: cell-based.
The target of assay [2] is T1, recombinant human AChE.
Assay [3] concerns the target T1, recombinant human AChE. The assay can be described thus: biochemical. The source holds these as a separate data set.
Assay [4] has as its target AChE in SH-SY5Y spheroids (Homo sapiens, UniProt P22303). As to the kind of experiment: cell-based. The note with it: for IC50: potency (IC50).
Assay [5] addresses AChE in neural stem cells (Homo sapiens, UniProt P22303). As to the kind of experiment: cell-based. The note with it: for AC50: AC50 (uM).
For assay [6], the target named is AChE in neural stem cell spheroids (Homo sapiens, UniProt P22303). The assay can be described thus: cell-based. The note with it: for IC50: potency (IC50).
In assay [7] the target is T1, recombinant human AChE. The assay can be described thus: biochemical. The format is biochemical. The note with it: for AC50: AC50 (uM).
Assay [8] has as its target T1, recombinant human AChE. As to the kind of experiment: biochemical. The source holds these as a separate data set.
[9] abbreviates: potency (IC50), SH-SY5Y cells monolayer.
Where [10] appears, read: Neural stem cell spheroid (24 h).
Where [11] appears, read: Neural stem cell spheroid (48 h).
For IR or R in this document: key: Reversible (R); Irreversible (IR); ND, not detected in enzyme-based AChE inhibition assay from current study.

On to `CNC(=O)Oc1cccc(C(C)C)c1` [m-Cumenyl methylcarbamate], for which the “CC-v2 (curve classes)” value is listed as -1.1 on recombinant human AChE [1], -1.1 at AChE in SH-SY5Y cells and -2.2 at recombinant human AChE [2]. In addition, the Efficacy is listed as -86.828 on recombinant human AChE [1] and -59.77 at recombinant human AChE [2].

Turning to `CCCCCCCCCCC[C@@H](C[C@@H]1OC(=O)[C@H]1CCCCCC)OC(=O)[C@H](CC(C)C)NC=O` [Orlistat, reference compound], the “CC-v2 (curve classes)” value was -1.1 on recombinant human AChE [1] and -1.2 on AChE in SH-SY5Y cells. Besides, the Efficacy on recombinant human AChE [1] is -81.515. Also, the IC50 (as a rule, the point on the concentration scale where inhibition reaches its midpoint) is 3.47 µM at recombinant human AChE [1] (IC50 (uM)); 1.59 µM on recombinant human AChE [1] (potency (IC50), Enzyme); 19.4 ± 2.23 µM on recombinant human AChE [3]; 6.17 µM and 2.45 µM and 3.47 µM at AChE in SH-SY5Y cells (IC50 (uM)); 4.91 µM at AChE in SH-SY5Y cells (setting [9]); 9.46 µM in [4] (SH-SY5Y spheroids (24 h)). Also, the IC50 turned out to be 8.82 µM in assay [4] (SH-SY5Y spheroids (48 h)), 3.44 µM in assay [5], 3.9 µM in assay [6] (setting [10]) and 2.36 µM in assay [6] (setting [11]). In addition, the “IR or R” value on recombinant human AChE [7] is on record as “R”. Besides, the “reversibility of AChE inhibition (result in words)” value on recombinant human AChE [7] was “reversible”.

Regarding `COc1cc(C(=O)NCc2ccc(OCCN(C)C)cc2)cc(OC)c1OC` [Trimethobenzamide hydrochloride], the IC50 at recombinant human AChE [1] (IC50 (uM)) was 15.5 µM; at AChE in SH-SY5Y cells (IC50 (uM)), 8.71 µM and 6.92 µM.

With `[Cl-].c1ccc(C[n+]2cccc3ccccc32)cc1` [1-Benzylquinolinium chloride], the AC50 (usually the concentration at which the activity in the assay is half-maximal) on recombinant human AChE [1] is 6.27 µM; at AChE in SH-SY5Y cells (AC50), 14 µM and 17.7 µM; in assay [4] (AC50 (uM)) it was 9.93 µM and 12.5 µM (2×); in [5], 44.4 µM and 28 µM and 17.7 µM; in assay [6] (AC50 (uM)), 39.5 µM (2×) and 35.2 µM; on recombinant human AChE [7], 25 µM and 17.7 µM (2×) and 28 µM and 15.7 µM and 22.2 µM and 19.8 µM and 14 µM. For the same compound, the “CC-v2 (curve class)” value on recombinant human AChE [1] and on AChE in SH-SY5Y cells was -2.1 throughout. Moreover, the “CC-v2 (curve classes)” value at recombinant human AChE [1] is given as -2.1; at AChE in SH-SY5Y cells, -1.1; on recombinant human AChE [2] it was -2.2. The “Max Resp” value on recombinant human AChE [1] was -82.401. Also, the CC-v2 in assay [4] is -1.2 and -1.1 and -2.1; in [5] it was -2.2. The “Hill Coef” value in assay [4] was 2.333 and 2.121 and 1.788 and 1.416; in assay [5], 1.416 and 1 and 1.344; in assay [6], 4.449 and 2.406 and 3.929 and 2.638. Also, the CC-v1 in [5] is recorded as -2.2. The “IR or R” value at recombinant human AChE [7] is given as “R”. In addition, the Efficacy on recombinant human AChE [2] was -50.659.

On to `Cl.Nc1c2ccccc2nc2ccccc12.O`, for which the “CC-v2 (curve classes)” value at recombinant human AChE [1] is -1.1. The IC50 on recombinant human AChE [1] (IC50 (uM)) was 0.776 µM and 1.11 µM and 1.4 µM. For the same compound, the “CC-v2 (curve classes)” value on AChE in SH-SY5Y cells is on record as -1.1. On AChE in SH-SY5Y cells (IC50 (uM)), the IC50 is 0.871 µM and 0.701 µM and 0.556 µM and 0.692 µM and 0.786 µM and 0.245 µM and 0.624 µM. In [5], the CC-v1 is on record as -1.1, the CC-v2 is given as -1.1, the Efficacy is -93.475 and the “Hill Coef” value stood at 1.1. Besides, in assay [5], the IC50 worked out at 0.598 µM, the “Max Resp” value is -87.315 and the half-maximal activity concentration (AC50) is 0.485 µM. For the same compound, the AC50 at recombinant human AChE [7] was 2.17 µM (2×) and 2.73 µM and 769 nM and 1.53 µM and 1.72 µM and 863 nM and 968 nM and 2.43 µM. Besides, the “CC-v2 (curve classes)” value on recombinant human AChE [2] is -2.1 and -1.1. In addition, the IC50 at recombinant human AChE [8] (IC50 (uM)) was 15.5 µM and 7.01 µM and 7.86 µM.

Regarding `Nc1c2ccccc2nc2ccccc12` [9-Aminoacridine, reference compound], the IC50 at recombinant human AChE [1] (potency (IC50), Enzyme) was determined as 1.17 ± 0.16 µM; at recombinant human AChE [3], 4.68 ± 0.3 µM; at AChE in SH-SY5Y cells (setting [9]) it was 0.97 ± 0.11 µM; in assay [4] (SH-SY5Y spheroids (24 h)) it was 0.53 ± 0.4 µM; in [4] (SH-SY5Y spheroids (48 h)), 1.05 ± 0.07 µM; in [6] (setting [10]), 0.06 µM. The IC50 in assay [6] (setting [11]) was 0.12 ± 0.05 µM; on recombinant human AChE [8] (potency (IC50), Enzyme with microsomes), 4.87 ± 0.56 µM. Further, the “IR or R” value at recombinant human AChE [7] is “R”.
